The values that follow come from patent US5288709A, “Erythromycin derivatives” (priority 1991, dated 1994).

By half-life is commonly meant how long it takes for the measured level to halve. Read a high half-life as slow loss.

The nature of the data set: in vivo. Conditions: dog, po, 10 mg/kg, t1/2 (biological half life), microbiological assay.

For the compound `CC[C@H]1OC(=O)[C@H](C)[C@@H](O[C@H]2C[C@@](C)(OC)[C@@H](O)[C@H](C)O2)[C@H](C)[C@@H](O[C@@H]2O[C@H](C)C[C@H](N(C)C)[C@H]2O)[C@](C)(O)C[C@@H](C)C(=O)[C@H](C)[C@@H](O)[C@]1(C)O` [Std, Erythromycin A, reference compound], the half-life is 120 min.
